Assay results taken from PubChem BioAssay AID463104 (Sanford-Burnham Center for Chemical Genomics, 2010).
Only a part is listed here, and it is no random draw. Calls of active or inactive are those of the source.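 The calls were made as follows: active = versus positive control, 20 µM dose yields 30% or more activation; inactive = the rest.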

test: activators of adaptive XBP1 UPR arm, primary screen, cell-based, CHO-XBP1 luciferase reporter, luminescence, uHTS (AID 463104); conditions: IRE1-XBP1 UPR activation, at 20 µM, active compounds read high, percent of tunicamycin response, DMSO as zero;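 also: 100% = tunicamycin at 10 µg/mL and 0% = DMSO only wells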
Summary of the method: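 Assay system: CHO-XBP1 luciferase reporter cells; Schedule: 6 h treatment, 37 °C; Detection: glow luminescence from Steady-Glo reagent; Benchmarks: high control tunicamycin 10 µg/mL final, low control DMSO vehicle only.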

Row | Structure (SMILES) | activation
1 | Cc1nn(-c2ccccc2)c2c1P(=O)(N1CCOCC1)N(C)C(c1ccccc1)=N2 (configuration not stated) | inactive: -0.34%
2 | CC1CCC(C(C)C)C(OP(=O)(Nc2ccccn2)c2ccccc2)C1 (configuration not stated) | inactive: -0.49%
3 | Cc1ccc(C(=O)OC2CN3CCC2CC3)cc1 (configuration not stated) | inactive: 0.12%
4 | CN(C)C1(CNC(=O)c2ccc(S(C)(=O)=O)cc2)CCCCC1 | inactive: -2.46%
5 | O=C(/C=C/c1ccccc1)OC1CN2CCC1CC2 (configuration not stated) | inactive: -3.13%
6 | O=P1(Nc2ncccn2)COc2ccccc2OC1 | inactive: -1.43%
7 | Nc1cccc([As](=O)(O)c2ccccc2)c1 | inactive: -1.86%
8 | O=P1(Nc2ccc(Br)cn2)COc2ccccc2OC1 | inactive: -0.24%
9 | NS(=O)(=O)c1cccc(NC(=O)COC(=O)C(O)(c2ccccc2)c2ccccc2)c1 | inactive: -1.02%
10 | Cc1ccc(OCC(=O)OC2CN3CCC2CC3)cc1 (configuration not stated) | inactive: -2.77%
11 | O=[As](O)(c1cccs1)c1cccs1 | inactive: 0.75%
12 | O=P(Nc1ccccn1)(c1ccc(Br)cc1)c1ccc(Br)cc1 | inactive: -3.48%
13 | CN(C)C1(CNC(=O)c2ccc(Cl)c(S(N)(=O)=O)c2)CCCCC1 | inactive: 3.9%
14 | O=P(Nc1nc2ccccc2s1)(c1ccccc1)c1ccccc1 | inactive: -1.18%
15 | C[C@H]1OP(=O)(Oc2ccccc2)[C@H](O)[C@H](O)[C@H]1N=[N+]=[N-] (some centres not stated) | inactive: 2.51%
16 | O=[As](O)(c1ccccc1)c1ccc(O)cc1 | inactive: -1.18%
17 | O=[N+]([O-])c1ncn(CCn2cnc([N+](=O)[O-])n2)n1 | inactive: -2.73%
18 | O=C(OC1CN2CCC1CC2)c1cccc(Cl)c1 (configuration not stated) | inactive: -0.74%
19 | Nc1ccc([As](=O)(O)c2ccc([N+](=O)[O-])cc2)cc1 | inactive: -0.69%
20 | C(Cc1nn[nH]n1)Cc1nn[nH]n1 | inactive: -1.58%
21 | CC(C)C(=O)NC(Sc1ccccc1)C(Cl)(Cl)Cl (configuration not stated) | inactive: -1.1%

Row | Structure (SMILES) | activation
22 | O=P(Nc1nccs1)(c1ccccc1)c1ccccc1 | inactive: 0.21%
23 | c1nnnn1CCn1cnnn1 | inactive: -0.24%
24 | O=P1(Nc2nc3ccc(Cl)cc3s2)COc2ccccc2O1 (configuration not stated) | inactive: -0.58%
25 | CCOc1ccc(C2=NCC(CBr)S2)cc1 (configuration not stated) | inactive: -0.49%
26 | CC(C)(C)C(=O)NC(Sc1ccccc1)C(Cl)(Cl)Cl (configuration not stated) | inactive: -3.01%
27 | Cc1ccccc1CN(C)C(=O)COC(=O)C(O)(c1ccccc1)c1ccccc1 | inactive: -0.86%
28 | C[C@@H]1C=CCP(=O)(Oc2ccccc2)O1 (some centres not stated) | inactive: -1.26%
29 | C[C@H]1OP(=O)(Oc2ccccc2)C[C@@H]2O[C@@H]21 (some centres not stated) | inactive: 2.06%
30 | CC(=O)c1ccc(N2CC2c2ccncc2)cc1 (configuration not stated) | inactive: -2.33%
31 | CC(=O)Nc1ccc([As](=O)(O)O)c(O)c1 | inactive: 1.52%
32 | CC(=O)Nc1ccc(Oc2c([N+](=O)[O-])cc([N+](=O)[O-])cc2[N+](=O)[O-])cc1 | inactive: -3.2%
33 | c1ccc(-c2nn[nH]n2)c(-c2nn[nH]n2)c1 | inactive: -3.34%
34 | Cc1ccc(NP(=O)(Oc2cccc(C)c2)Oc2cccc(C)c2)nc1 | inactive: -2.03%
35 | CCOC(=O)NC(Sc1ccccc1)C(Cl)(Cl)Cl (configuration not stated) | inactive: 10.4%
36 | CCNC(=S)/N=C(\N)N[N+](=O)[O-] | inactive: -3.71%
37 | O=C(NC1CCS(=O)(=O)C1)NP(=S)(Oc1ccccc1)Oc1ccccc1 (configuration not stated) | inactive: 1.12%
38 | O=C(OC1CN2CCC1CC2)c1ccccc1 (configuration not stated) | inactive: -3.89%
39 | CCC(=O)N1C2C3N(C(=O)CC)C1C1N(C(=O)CC)C(C(N1C(=O)CC)N3C(=O)CC)N2C(=O)CC | inactive: -4.67%
40 | COC(=O)c1cc2c(s1)N=C(c1ccccc1)N(C)P2(=O)N1CCOCC1 (configuration not stated) | inactive: -5.5%
41 | CC(=O)NC(SC(=S)N(CC(C)C)CC(C)C)C(Cl)(Cl)Cl (configuration not stated) | inactive: 4.03%
42 | Cc1ccc(OP(=O)(Nc2ccccn2)Oc2ccc(C)cc2)cc1 | inactive: 0.35%

Row | Structure (SMILES) | activation
43 | Cc1ccccc1OP(=O)(Nc1ccccn1)Oc1ccccc1C | inactive: -5.02%
44 | CC(NC(=O)COC(=O)C(O)(c1ccccc1)c1ccccc1)c1ccccc1 (configuration not stated) | inactive: -1.71%
45 | CN(C)C(=O)Oc1noc2ccccc12 | inactive: -0.98%
46 | O=P(Nc1nc2ccc(Cl)cc2s1)(c1ccccc1)c1ccccc1 | inactive: 0.65%
47 | O=C(O)c1ccccc1[As](=O)(O)O | inactive: -4.32%
48 | CC(=O)Nc1ccc([As](=O)(O)O)cc1 | inactive: 0.49%
49 | CCOP(=O)(Nc1ccccc1)OCC | inactive: -0.28%
50 | Cc1cc(SC(NC(=O)c2ccc(F)cc2)C(Cl)(Cl)Cl)ncn1 (configuration not stated) | inactive: -1.09%
51 | Cc1ccc(NP(=O)(Oc2ccccc2F)Oc2ccccc2F)nc1 | inactive: 2.85%
52 | CN(C(=O)Cc1ccc(Cl)c(Cl)c1)[C@H]1CCCC[C@@H]1N1CCCC1 | inactive: -6.19%
53 | O=[N+]([O-])c1cc([N+](=O)[O-])c(CCN2CCOCC2)c([N+](=O)[O-])c1 | inactive: -8.49%
54 | CCN(N=Nc1nonc1N)c1nonc1N | inactive: -1.58%
55 | CN(C(=O)Cc1ccc(Cl)c(Cl)c1)[C@H]1CCCC[C@H]1N1CCCC1 | inactive: -8.87%
56 | Cc1ccc(N/C(=N/P(=O)(N2CCOCC2)N2CCOCC2)N2CCOCC2)cc1 | inactive: -8%
57 | NC(=O)c1cc([N+](=O)[O-])cc([N+](=O)[O-])c1N | inactive: -4.54%
58 | Clc1ccc(Cl)c(NC2=NCC(CBr)S2)c1 (configuration not stated) | inactive: -3.36%
59 | CN1CCCC(OC(=O)C(c2ccccc2)c2ccccc2)C1 (configuration not stated) | inactive: -0.88%
60 | COc1ccccc1OP(=O)(Nc1ccc(C)cn1)Oc1ccccc1OC | inactive: -4.98%
61 | Cc1ccc(OP(=O)(Nc2nccs2)Oc2ccc(C)cc2)cc1 | inactive: -1.28%
62 | Oc1ccccc1CNc1ccccn1 | inactive: 0.32%
63 | Cc1c2non([O-])c-2c(C)[n+](=O)[n+]1[O-] | inactive: -3.21%

Row | Structure (SMILES) | activation
64 | O=C(NC(Sc1ccncn1)C(Cl)(Cl)Cl)c1ccccc1 (configuration not stated) | inactive: 2.57%
65 | CC(C)CC(=O)NC(Sc1ccc(Cl)cc1)C(Cl)(Cl)Cl (configuration not stated) | inactive: 1.9%
66 | Nc1cc(N)c2nonc2c1[N+](=O)[O-] | inactive: -2.89%
67 | COc1ccc(C2=NCC(CBr)S2)cc1 (configuration not stated) | inactive: -1.05%
68 | Cc1ccc(NP(=O)(Oc2ccccc2)Oc2ccccc2)nc1 | inactive: -0.57%
69 | CCc1nc2c(n1)c1c(non1O)c1c2no[n+]1[O-] | inactive: -8.43%
70 | O=[N+]([O-])c1cc([N+](=O)[O-])c(CCNc2ccccc2)c([N+](=O)[O-])c1 | inactive: -3.2%
71 | O=[N+]([O-])c1cccc2n[nH]nc12 | inactive: -0.25%
72 | CC(=O)N1C2C3N(C(C)=O)C1C1N(C(C)=O)C(C(N1C(C)=O)N3C(C)=O)N2C(C)=O | inactive: -3.42%
73 | CCN(/C(=N/P(=O)(N1CCOCC1)N1CCOCC1)N1CCOCC1)c1ccc(OC)cc1 | inactive: 0.67%
74 | Nc1ccc([As](=O)(O)c2ccc(N)cc2)cc1 | inactive: -1.86%
75 | C[N+]1=C2C=CC=CC=C2SC12C([N+](=O)[O-])=CC([N+](=O)[O-])=C[C-]2[N+](=O)[O-] (configuration not stated) | inactive: -1.61%
76 | CC1CCN(C(=O)Oc2c(Cl)cc(Cl)c3cccnc23)CC1 | inactive: -0.85%
77 | CC(C)=N/N=C(\N)N[N+](=O)[O-] | inactive: -2.59%
78 | CN(C)C(=O)OCCc1n(C)cc[n+]1C | inactive: -2.75%
79 | O=C(Nc1cc([As](=O)(O)O)ccc1O)c1ccccc1 | inactive: -6.85%
80 | O=[N+]([O-])c1ncn(CCn2ncnc2[N+](=O)[O-])n1 | inactive: 11.3%
81 | CC(C)(C)C(=O)NC(Sc1ccncn1)C(Cl)(Cl)Cl (configuration not stated) | inactive: -3.55%
82 | O=[N+]([O-])c1cccc(NC2=NCC(CBr)S2)c1 (configuration not stated) | inactive: 0.71%
